# Reference: PubChem BioAssay AID2250 (Sanford-Burnham Center for Chemical Genomics, 2010)
# pIC50: −log10 of the molar value. Calls of active or inactive are those of the source. The rule behind the calls is not given here.
# Tested on: MCF-7/NOD1 cells, GM-Tri-DAP induced IL-8 secretion
# Assay: inhibition of NOD1-driven IL-8 release, SAR follow-up, MCF-7/NOD1 cells, GM-Tri-DAP stimulus (AID 2250)
pIC50,IC50,Structure (SMILES)
5.62,,Nc1nc2ccccc2n1S(=O)(=O)c1ccccc1
,inactive: > 5 µM,Cc1ccc(S(=O)(=O)n2cnc3ccccc32)cc1
5.50,,COc1ccc(S(=O)(=O)n2c(N)nc3ccccc32)cc1
